Among the data in ChEMBL document CHEMBL5236556, “Development of Cdc2-like Kinase 2 Inhibitors: Achievements and Future Directions” (J Med Chem, 2021) are IC50 values, retold here.

Sequences of proteins named here, by UniProt entry; tags and fusion partners are left off. A change or cut given only in a name is not applied to a line headed by its entry.
UniProt P49760, whole entry: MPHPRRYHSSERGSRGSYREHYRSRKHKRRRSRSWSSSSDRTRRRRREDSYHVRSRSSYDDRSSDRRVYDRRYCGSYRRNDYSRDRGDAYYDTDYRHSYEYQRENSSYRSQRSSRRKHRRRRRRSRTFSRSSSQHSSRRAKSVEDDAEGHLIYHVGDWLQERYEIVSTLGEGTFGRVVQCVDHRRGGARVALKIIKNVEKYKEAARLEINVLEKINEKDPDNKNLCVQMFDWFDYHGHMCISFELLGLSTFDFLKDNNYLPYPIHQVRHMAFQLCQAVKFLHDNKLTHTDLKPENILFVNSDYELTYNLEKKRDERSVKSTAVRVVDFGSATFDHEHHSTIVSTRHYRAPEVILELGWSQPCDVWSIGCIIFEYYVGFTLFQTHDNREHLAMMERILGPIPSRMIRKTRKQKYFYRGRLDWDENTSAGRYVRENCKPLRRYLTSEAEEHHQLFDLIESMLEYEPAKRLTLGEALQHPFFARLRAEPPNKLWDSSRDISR
UniProt P49761: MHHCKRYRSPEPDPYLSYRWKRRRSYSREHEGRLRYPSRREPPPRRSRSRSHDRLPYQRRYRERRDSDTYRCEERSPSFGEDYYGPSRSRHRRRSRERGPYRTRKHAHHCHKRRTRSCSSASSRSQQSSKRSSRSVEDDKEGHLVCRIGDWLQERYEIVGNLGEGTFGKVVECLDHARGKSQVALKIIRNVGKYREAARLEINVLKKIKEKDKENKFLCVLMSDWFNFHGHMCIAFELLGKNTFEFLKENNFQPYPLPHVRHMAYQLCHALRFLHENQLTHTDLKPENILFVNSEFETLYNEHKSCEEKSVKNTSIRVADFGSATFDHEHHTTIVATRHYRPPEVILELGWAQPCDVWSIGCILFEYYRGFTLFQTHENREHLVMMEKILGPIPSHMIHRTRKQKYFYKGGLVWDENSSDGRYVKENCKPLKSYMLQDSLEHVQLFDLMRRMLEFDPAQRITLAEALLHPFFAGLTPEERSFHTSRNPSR

Assay [1] has as its target Dual specificity protein kinase CLK2 (Homo sapiens, UniProt P49760).
Assay [2] has as its target Dual specificity protein kinase CLK3 (Homo sapiens, UniProt P49761).

The compound `O=C1NC(Nc2ccccc2)=N/C1=C\c1ccc2c(c1)OCO2` showed an IC50 in assay [1] of 720 nM.

For `Cn1cc(-c2ccc3occ(-c4cccc(-c5ccncc5)c4)c3n2)cn1`, in assay [2], the IC50 is > 3000 nM.
